For this assay, the target named is KLHDC10^41-C-EloB/C with a 10X Histidine tag on EloC (SPR) (UniProt Q6PID8). The assay is described as follows: SPR; Biacore T200; His-tagged KLHDC10 complex captured on Ni-NTA chip (about 300 RU); ubiquitin variants as analytes 2 uM to 0.125 uM, multi-cycle kinetics; 25 mM Tris, 200 mM NaCl, 0.1% Tween20, pH 7.4; 20 °C; 1:1 binding model.

By Kd is commonly meant the free concentration of one partner at which half of the binding sites on the other are occupied at equilibrium, for simple one-to-one binding. Higher therefore signals weaker binding. As for All the ubiquitin variants, the dissociation constant (Kd) lay within 250 to 400 nM.

The values above are taken from paper PMC11568203.
